Assays:
[1] = substrate: CC(=O)OCC1=C(C(=O)O)N2C(=O)[C@@H](NC(=O)Cc3cccs3)[C@H]2SC1; assay: (§1) Activity at Pseudomonas aeruginosa PDC-1 by spectrophotometer
[2] = substrate: CO[C@@]1(NC(=O)Cc2cccs2)C(=O)N2C(C(=O)O)=C(COC(N)=O)CS[C@@H]21; assay: as §1
[3] = substrate: CC1(C)S[C@@H]2[C@H](NC(=O)[C@H](N)c3ccc(O)cc3)C(=O)N2[C@H]1C(=O)O; assay: as §1
[4] = substrate: CC1(C)S[C@@H]2[C@H](NC(=O)Cc3ccccc3)C(=O)N2[C@H]1C(=O)O; assay: as §1
[5] = substrate: CC(=O)OCC1=C(C(=O)O)N2C(=O)[C@@H](NC(=O)Cc3cccs3)[C@H]2SC1; assay: (§2) Ratio of Kcat to Km for Pseudomonas aeruginosa PDC-1 by spectrophotometer
[6] = substrate: CO[C@@]1(NC(=O)Cc2cccs2)C(=O)N2C(C(=O)O)=C(COC(N)=O)CS[C@@H]21; assay: as §2
[7] = substrate: CC1(C)S[C@@H]2[C@H](NC(=O)[C@H](N)c3ccc(O)cc3)C(=O)N2[C@H]1C(=O)O; assay: as §2
[8] = substrate: CC(=O)OCC1=C(C(=O)O)N2C(=O)[C@@H](NC(=O)Cc3cccs3)[C@H]2SC1; assay: (§3) Ratio of Kcat to Km for Pseudomonas aeruginosa PDC-5 by spectrophotometer
[9] = substrate: CO[C@@]1(NC(=O)Cc2cccs2)C(=O)N2C(C(=O)O)=C(COC(N)=O)CS[C@@H]21; assay: as §3
[10] = substrate: CC1(C)S[C@@H]2[C@H](NC(=O)[C@H](N)c3ccc(O)cc3)C(=O)N2[C@H]1C(=O)O; assay: as §3
[11] = substrate: CO/N=C(\C(=O)N[C@@H]1C(=O)N2C(C(=O)[O-])=C(C[N+]3(C)CCCC3)CS[C@H]12)c1csc(N)n1; assay: as §3
[12] = substrate: CC(=O)OCC1=C(C(=O)O)N2C(=O)[C@@H](NC(=O)Cc3cccs3)[C@H]2SC1; assay: (§4) Activity at Pseudomonas aeruginosa PDC-5 by spectrophotometer
[13] = substrate: CO[C@@]1(NC(=O)Cc2cccs2)C(=O)N2C(C(=O)O)=C(COC(N)=O)CS[C@@H]21; assay: as §4
[14] = substrate: CC1(C)S[C@@H]2[C@H](NC(=O)[C@H](N)c3ccc(O)cc3)C(=O)N2[C@H]1C(=O)O; assay: as §4
[15] = substrate: CO/N=C(\C(=O)N[C@@H]1C(=O)N2C(C(=O)[O-])=C(C[N+]3(C)CCCC3)CS[C@H]12)c1csc(N)n1; assay: as §4

B1: Beta-lactamase (Pseudomonas aeruginosa (strain ATCC 15692 / PAO1 / 1C / PRS 101 / LMG12228)), P24735 (protein)
chain: MRDTRFPCLCGIAASTLLFATTPAIAGEAPADRLKALVDAAVQPVMKANDIPGLAVAISLKGEPHYFSYGLASKEDGRRVTPETLFEIGSVSKTFTATLAGYALTQDKMRLDDRASQHWPALQGSRFDGISLLDLATYTAGGLPLQFPDSVQKDQAQIRDYYRQWQPTYAPGSQRLYSNPSIGLFGYLAARSLGQPFERLMEQQVFPALGLEQTHLDVPEAALAQYAQGYGKDDRPLRVGPGPLDAEGYGVKTSAADLLRFVDANLHPERLDRPWAQALDATHRGYYKVGDMTQGLGWEAYDWPISLKRLQAGNSTPMALQPHRIARLPAPQALEGQRLLNKTGSTNGFGAYVAFVPGRDLGLVILANRNYPNAERVKIAYAILSGLEQQGKVPLKR
Km [1]: 85 µM | kcat [1]: 44 s⁻¹ | Km [2]: 0.5 µM | kcat [2]: 0.015 s⁻¹ | Km [3]: 20 µM | kcat [3]: 0.5 s⁻¹ | kcat [4]: 15 s⁻¹ | kcat/Km [5]: 5.1e+08 M⁻¹ s⁻¹ | kcat/Km [6]: 3e+07 M⁻¹ s⁻¹ | kcat/Km [7]: 2.5e+07 M⁻¹ s⁻¹

B2: Beta-lactamase (Pseudomonas aeruginosa), Q8RL90 (protein)
chain: MRDTRFPCLCGIAASTLLFATTPAIAGEAPADRLKALVDAAVQPVMKANDIPGLAVAISLKGEPHYFSYGLASKEDGRQVTPETLFEIGSVSKTFTATLAGYALAQDKMRLDDRASQHWPALQGSRFDGISLLDLATYTAGGLPLQFPDSVQKDQAQIRDYYRQWQPTYAPGSQRLYSNPSIGLFGYLAARSLGQPFERLMEQQVFPALGLEQTHLDVPEAALAQYAQGYGKDDRPLRVGPGPLDAEGYGVKTSAADLLRFVDANLHPERLDRPWAQALDATHRGYYKVGDMTQGLGWEAYDWPISLKRLQAGNSTPMALQPHRIARLPAPQALEGQRLLNKTGSTNGFGAYVAFVPGRDLGLVILANRNYPNAERVKIAYAILSGLEQQGKVPLKR
kcat/Km [8]: 2.3e+09 M⁻¹ s⁻¹ | kcat/Km [9]: 1.6e+08 M⁻¹ s⁻¹ | kcat/Km [10]: 8e+07 M⁻¹ s⁻¹ | kcat/Km [11]: 1.5e+06 M⁻¹ s⁻¹ | Km [12]: 50 µM | kcat [12]: 115 s⁻¹ | Km [13]: 0.5 µM | kcat [13]: 0.08 s⁻¹ | Km [14]: 30 µM | kcat [14]: 2.5 s⁻¹ | kcat [15]: 2.5 s⁻¹

From ChEMBL document CHEMBL1629679, “Extended-spectrum cephalosporinases in Pseudomonas aeruginosa” (2009)
